Results reported in patent US20130012466A1 (priority 2006, published 2013).
“Also recorded” adds a separate entry of the source.

System: tubulin
Assay: In vitro tubulin polymerization assay (fluorescence-based)
Format: biochemical
Parameters: key to tubulin polymeriz.: ‘D’ designates destabilizer; ‘S’ designates stabilizer
Conditions: for effect on tubulin polymerization / microtubules: tested in duplicate on at least two days

| Molecule | tubulin polymeriz. | effect on tubulin polymerization / microtubules | effect on tubulin polymerization / microtubules (listed as 1) |
| --- | --- | --- | --- |
| COc1cc2c(c(OC)c1OC)-c1ccc(OC)c(=O)cc1[C@@H](NC(C)=O)CC2 [colchicine, reference compound] | D | destabilized microtubules | destabilizing |
| 19-(N-METHOXYAMINO-N-22-DEOXY-D-RIBOSYL)COLCHICINE [Col21] | S | stabilizing; also recorded: stabilized the microtubules | – |
